Reference: US10130633B2, “Compounds” (BAYER PHARMA AKTIENGESELLSCHAFT, priority 2013, dated 2018)
Counter-ions that a name gives are not always drawn.

Experiments:
[1] = system: constitutive active colorectal cancer cell (CRC) Wnt pathway; test: HCT116 TOPFlash cellular reporter assay (Super TopFlash luciferase), constitutive active Wnt pathway; type: cell-based; conditions: HCT116 TOP reporter cells, 36 hours incubation, luciferase expression
Text: In order to discover and characterize small molecules which inhibit the constitutive active colorectal cancer cell (CRC) Wnt pathway, a cellular reporter assay was employed. The corresponding assay cell was generated by transfection of the colorectal cancer cell line HCT116 (ATCC, #CCL-247) with the Super TopFlash vector (Morin, Science 275, 1997, 1787-1790; Molenaar et al., Cell 86 (3), 1996, 391-399). […] Stable transfectants were generated by cotransfection with pcDNA3 and selection of stable transfected cells with 1 mg/ml G418.

[2] = system: HCT116 FOP control reporter cell line; test: HCT116 FOPFlash control reporter assay (FOP control vector, non-functional TCF elements); type: cell-based; conditions: HCT116 FOP control reporter cells, 36 hours incubation, luciferase expression
Text: (§1) In a parallel approach, HCT116 cells were cotransfected with the FOP control vector and pcDNA3. The FOP vector is identical to the TOP construct, but it contains instead of functional TCF elements a randomized, non-functional sequence. For this transfection a stable transfected cell line was generated as well.

[3] = system: wildtype Wnt pathway; test: HEK293 TOP reporter assay, wildtype Wnt pathway stimulated with Wnt-3a; type: cell-based, human; conditions: HEK293 TOP cells, EC50 concentration of recombinant Wnt-3a, 16 hours; read-out: HEK TOP OncoFlash IC50
Experimental: (§2) Measurement of luciferase expression was done as described for the constitutive active Wnt assay.
In order to discover and characterize small molecules which inhibit the wildtype Wnt pathway, a cellular reporter assay was employed. […] Stable transfectants were generated by selection with 300 μg/ml Hygromycin.

[4] = system: HEK293 FOP control reporter cell line; test: HEK293 FOP control reporter assay; type: cell-based, human; conditions: Homo sapiens, HEK293, 16 h; read-out: HEK FOP IC50
Experimental: as §2
as §1, with “HEK293” for “HCT116”, “well, based on selection with Geneticin (1 mg/ml).” for “well.”

Structure (SMILES)	IC50 ([1]; Homo sapiens, HCT-116, 36 h) [nM]	IC50 ([2]; Homo sapiens, HCT-116, 36 h) [nM]	IC50 [3] [nM]	IC50 [1] [nM]	IC50 [2] [nM]	IC50 [4] [nM]
CC(C(=O)Nc1cc(C(=O)Nc2ccc(-c3ccc(N)cc3)nc2)ccc1OC(F)(F)F)N1CCOCC1 (stereo not drawn) [Example 111, N-[6-(4-aminophenyl)pyridin-3-yl]-3-{[2-(morpholin-4-yl)propanoyl]amino}-4-(trifluoromethoxy)benzamide]	32.2	≥ 50000				
O=C(Nc1ccc(OC(F)(F)F)c(NC(=O)C2(N3CCOCC3)CC2)c1)c1ccc(-c2ccccc2)nc1 [Example 61, N-[3-({[1-(morpholin-4-yl)cyclopropyl]carbonyl}amino)-4-(trifluoromethoxy)phenyl]-6-phenylnicotinamide]	26.5	≥ 50000	120			
CC(C(=O)Nc1cc(C(=O)Nc2nnc(-c3ccccc3)s2)ccc1OC(F)(F)F)N1CCN(C)CC1 (stereo not drawn) [Example 273, 3-{[2-(4-methylpiperazin-1-yl)propanoyl]amino}-N-(5-phenyl-1,3,4-thiadiazol-2-yl)-4-(trifluoromethoxy)benzamide trifluoroacetate (1:1)]				930	27000	
CC(C(=O)Nc1cc(C(=O)Nc2nnc(-c3ccccc3)s2)ccc1OC(F)(F)F)N1CCN(C)CC1 (stereo not drawn) [Example 260, 3-{[2-(4-methylpiperazin-1-yl)propanoyl]amino}-N-(5-phenyl-1,3,4-thiadiazol-2-yl)-4-(trifluoromethoxy)benzamide trifluoroacetate (1:1)]				123	9800	
CC(C(=O)Nc1cc(C(=O)Nc2ccc(-c3ccccc3)nc2)ccc1OC(F)(F)F)N1CCOCC1 (stereo not drawn) [Example 10, 3-{[2-(morpholin-4-yl)propanoyl]amino}-N-(6-phenylpyridin-3-yl)-4-(trifluoromethoxy)benzamide]			92	11.2		
CC(C(=O)Nc1cc(C(=O)Nc2ccc(-c3ccccc3)nc2)ccc1OC(F)(F)F)N1CCOCC1 (stereo not drawn) [Example 208, 3-{[2-(morpholin-4-yl)propanoyl]amino}-N-(6-phenylpyridin-3-yl)-4-(trifluoromethoxy)benzamide]				10.4		
O=C(CN1CCN(C2CC2)CC1)Nc1cc(C(=O)Nc2ccc(-c3ccccc3F)nc2)ccc1OC(F)(F)F [Example 63, 3-{[(4-cyclopropylpiperazin-1-yl)acetyl]amino}-N-[6-(2-fluorophenyl)pyridin-3-yl]-4-(trifluoromethoxy)benzamide]	50.8	≥ 50000	140			
CC(C(=O)Nc1cc(C(=O)Nc2nnc(-c3ccccc3)s2)ccc1OC(F)(F)F)N1CCOCC1 (stereo not drawn) [Example 57, 3-{[2-(morpholin-4-yl)propanoyl]amino}-N-(5-phenyl-1,3,4-thiadiazol-2-yl)-4-(trifluoromethoxy)benzamide]			500	124		
O=C(CN1CCOCC1)Nc1cc(NC(=O)c2cc(-c3ccccc3)[nH]n2)ccc1OC(F)(F)F [Example 124, N-{3-[(morpholin-4-ylacetyl)amino]-4-(trifluoromethoxy)phenyl}-5-phenyl-1H-pyrazole-3-carboxamide]			84			13000
O=C(Nc1ccc(-c2ccccc2F)nc1)c1ccc(OC(F)(F)F)c(NC(=O)C2(N3CCN(C4CC4)CC3)CC2)c1 [Example 67, 3-({[1-(4-cyclopropylpiperazin-1-yl)cyclopropyl]carbonyl}amino)-N-[6-(2-fluorophenyl)pyridin-3-yl]-4-(trifluoromethoxy)benzamide]	29.6	≥ 50000	13			
Cc1ccc(C(=O)Nc2ccc(-c3ccccc3F)nc2)cc1NC(=O)C1(N2CCOCC2)CC1 [Example 76, N-[6-(2-fluorophenyl)pyridin-3-yl]-4-methyl-3-({[1-(morpholin-4-yl)cyclopropyl]carbonyl}amino)benzamide]	31.4	≥ 50000	54			
O=C(CN1CCOCC1)Nc1cc(NC(=O)c2ccc(-c3ccccc3)s2)ccc1Cl [Example 21, N-{4-chloro-3-[(morpholin-4-ylacetyl)amino]phenyl}-5-phenylthiophene-2-carboxamide]		9200	140			5800
O=C(Nc1ccc(-c2cc(F)cc(F)c2)nc1)c1ccc(OC(F)(F)F)c(NC(=O)C2(N3CCOCC3)CC2)c1 [Example 71, N-[6-(3,5-difluorophenyl)pyridin-3-yl]-3-({[1-(morpholin-4-yl)cyclopropyl]carbonyl}amino)-4-(trifluoromethoxy)benzamide]	29.2	45000	160			
O=C(CN1CCOCC1)Nc1cc(NC(=O)c2ccc(-c3cccc(F)c3F)nc2)ccc1OC(F)(F)F [Example 26, 6-(2,3-difluorophenyl)-N-{3-[(morpholin-4-ylacetyl)amino]-4-(trifluoromethoxy)phenyl}nicotinamide]	118	≥ 50000	350			
COc1ccc(NC(=O)c2ccc(-c3cccc(F)c3)nc2)cc1NC(=O)CN1CCOCC1 [Example 32, 6-(3-fluorophenyl)-N-{4-methoxy-3-[(morpholin-4-ylacetyl)amino]phenyl}nicotinamide]	925	≥ 50000	260			
CC(=O)Nc1ccc(-c2ccc(NC(=O)c3ccc(OC(F)(F)F)c(NC(=O)C(C)N4CCOCC4)c3)cn2)cc1 (stereo not drawn) [Example 113, N-[6-(4-acetamidophenyl)pyridin-3-yl]-3-{[2-(morpholin-4-yl)propanoyl]amino}-4-(trifluoromethoxy)benzamide]	23	≥ 50000	890			
O=C(Nc1nnc(-c2ccccc2)s1)c1ccc(OC(F)(F)F)c(NC(=O)C2(N3CCOCC3)CC2)c1 [Example 50, 3-({[1-(morpholin-4-yl)cyclopropyl]carbonyl}amino)-N-(5-phenyl-1,3,4-thiadiazol-2-yl)-4-(trifluoromethoxy)benzamide]	46	≥ 50000	97			
C[C@@H](C(=O)Nc1cc(C(=O)Nc2ccc(-c3ccccc3F)nc2)ccc1OC(F)(F)F)N1CCN(C)CC1 (single isomer, unassigned) [Example 65, N-[6-(2-fluorophenyl)pyridin-3-yl]-3-{[(2S)-2-(4-methylpiperazin-1-yl)propanoyl]amino}-4-(trifluoromethoxy)benzamide or N-[6-(2-fluorophenyl)pyridin-3-yl]-3-{[(2R)-2-(4-methylpiperazin-1-yl)propanoyl]amino}-4-(trifluoromethoxy)benzamide]			150	5.2		
C[C@@H](C(=O)Nc1cc(C(=O)Nc2ccc(-c3ccccc3F)nc2)ccc1OC(F)(F)F)N1CCOCC1 (single isomer, unassigned) [Example 9, N-[6-(2-fluorophenyl)pyridin-3-yl]-3-{[(2S)-2-(morpholin-4-yl)propanoyl]amino}-4-(trifluoromethoxy)benzamide or N-[6-(2-fluorophenyl)pyridin-3-yl]-3-{[(2R)-2-(morpholin-4-yl)propanoyl]amino}-4-(trifluoromethoxy)benzamide]			9	14.2	20200	
